Experimental data as given in patent US8410137B2, “Thiophene-2-carboxamide derivatives, preparation thereof and therapeutic use thereof” (Sanofi, priority 2008, dated 2013).

Chains of the proteins cited; added tags and fusions are not shown.
UniProt P47746, whole entry: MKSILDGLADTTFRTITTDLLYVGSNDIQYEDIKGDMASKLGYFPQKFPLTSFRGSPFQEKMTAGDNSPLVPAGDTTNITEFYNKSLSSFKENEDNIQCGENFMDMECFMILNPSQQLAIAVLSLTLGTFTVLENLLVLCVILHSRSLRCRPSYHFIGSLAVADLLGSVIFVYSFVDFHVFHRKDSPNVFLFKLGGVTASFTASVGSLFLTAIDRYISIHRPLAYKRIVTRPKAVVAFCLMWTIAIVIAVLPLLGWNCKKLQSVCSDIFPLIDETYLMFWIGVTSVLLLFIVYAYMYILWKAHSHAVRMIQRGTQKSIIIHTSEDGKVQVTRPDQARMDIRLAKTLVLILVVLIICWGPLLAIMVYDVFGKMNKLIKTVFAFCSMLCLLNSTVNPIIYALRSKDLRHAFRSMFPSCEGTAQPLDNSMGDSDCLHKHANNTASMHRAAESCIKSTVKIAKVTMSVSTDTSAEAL

Target: T1, CB1 receptors present in the brain (Mus musculus, UniProt P47746)
T1 construct: from tissue; host or cells: whole animal (brain CB1 receptors, in vivo)
Assay: Measurement (3): blocking of the hypothermic effect induced by CP55940
Format: in vivo

Structure (SMILES): Cc1c(C(=O)NN2CCCCC2)nn(-c2ccc(Cl)cc2Cl)c1-c1ccc(Cl)cc1 [rimonabant, reference compound]
- effective dose 50 (DE50), reversion of the hypothermic effect of CP55940: (DE50) = 0.3 mg/kg]
- % of reversion of the hypothermic effect of CP55940 with regard to the CB1 receptors present in the brain (iv at 10 mg/kg): 100%
